Literature values in patent US10308960B2, “Methods for treating cells containing fusion genes” (University of Pittsburgh—of the Commonwealth System of …, priority 2014, dated 2019).

Test system: non-small cell lung cancer positive for EML4-ALK
Conditions: advanced and metastatic non-small cell lung cancer positive for EML4-ALK; cited from earlier work

## C[C@@H](Oc1cc(-c2cnn(C3CCNCC3)c2)cnc1N)c1c(Cl)ccc(F)c1Cl [Crisotinib]
  shrinkage of tumor mass in most patients: at least 30%
